Structures are written as SMILES.

The first test relates to hERG (Potassium voltage-gated channel subfamily H member 2, Homo sapiens). Briefly: Displacement of [35S]MK-0499 from human hERG potassium channel at 1 uM. In general terms: In a radioligand displacement assay an active substance lowers the binding of a labelled ligand.
On to `CN1C(=O)[C@H](NC(=O)[C@@H](Cc2ccccc2F)NC(=O)OC(C)(C)C)CN(CC2CC2)c2ccccc21`, for which the inhibition – broadly, the relative decrease from the control value, in per cent – is 1%.

A further test shares this test system. Briefly: Displacement of [35S]MK-0499 from human hERG potassium channel at 10 uM.
`CC(C)(C)OC(=O)N[C@H](Cc1ccccc1OC(F)(F)F)C(=O)N[C@@H]1CN(CC2CC2)c2ccccc2N(CC(F)(F)F)C1=O` yielded an inhibition of 13%.
`CN1C(=O)[C@H](NC(=O)[C@@H](Cc2ccccc2F)NC(=O)OC(C)(C)C)CN(CC2CC2)c2ccccc21` displayed an inhibition of 45%.
Same read-out and setting: for `CC(C)(C)OC(=O)N[C@H](Cc1ccccc1)C(=O)N[C@@H]1CN(CC2CC2)c2ccccc2N(CC(F)(F)F)C1=O` the value was 24%.
`CC(C)N1C(=O)[C@H](NC(=O)[C@@H](Cc2ccccc2C(F)(F)F)NC(=O)OC(C)(C)C)CN(CC2CC2)c2ccccc21`: the inhibition is 21%.
Same read-out and setting: for `CC(C)(C)OC(=O)N[C@H](Cc1ccc(F)cc1)C(=O)N[C@@H]1CN(CC2CC2)c2ccccc2N(CC(F)(F)F)C1=O` the value was 18%; for `CC(C)N1C(=O)[C@H](NC(=O)[C@@H](Cc2ccc(F)cc2)NC(=O)OC(C)(C)C)CN(CC2CC2)c2ccccc21`, 29%.

(Values after ChEMBL document CHEMBL1141526, “3-Amino-1,5-benzodiazepinones: potent, state-dependent sodium channel blockers with anti-epileptic activity” (Bioorg Med Chem Lett, 2008).)
